Source: paper PMC10413649 (Science Advances, 2023)

Sequences of proteins named here, by UniProt entry; tags and fusion partners are left off. A change or cut given only in a name is not applied to a line headed by its entry.
UniProt P12956: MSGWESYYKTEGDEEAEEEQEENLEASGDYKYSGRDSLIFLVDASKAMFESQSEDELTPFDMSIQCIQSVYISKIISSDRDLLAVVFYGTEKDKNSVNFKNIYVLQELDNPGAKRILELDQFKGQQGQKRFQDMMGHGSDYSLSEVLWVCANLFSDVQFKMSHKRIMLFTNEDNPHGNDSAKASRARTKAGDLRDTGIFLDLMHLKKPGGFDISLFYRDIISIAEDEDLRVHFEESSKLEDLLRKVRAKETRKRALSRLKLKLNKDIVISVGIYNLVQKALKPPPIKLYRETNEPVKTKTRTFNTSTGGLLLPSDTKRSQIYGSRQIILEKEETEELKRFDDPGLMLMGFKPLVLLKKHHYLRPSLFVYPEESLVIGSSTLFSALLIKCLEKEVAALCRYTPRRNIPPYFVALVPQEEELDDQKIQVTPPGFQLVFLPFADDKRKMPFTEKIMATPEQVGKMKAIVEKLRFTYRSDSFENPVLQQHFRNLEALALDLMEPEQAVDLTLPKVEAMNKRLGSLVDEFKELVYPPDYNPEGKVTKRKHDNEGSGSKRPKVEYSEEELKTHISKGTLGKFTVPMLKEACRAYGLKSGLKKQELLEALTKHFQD
UniProt P13010: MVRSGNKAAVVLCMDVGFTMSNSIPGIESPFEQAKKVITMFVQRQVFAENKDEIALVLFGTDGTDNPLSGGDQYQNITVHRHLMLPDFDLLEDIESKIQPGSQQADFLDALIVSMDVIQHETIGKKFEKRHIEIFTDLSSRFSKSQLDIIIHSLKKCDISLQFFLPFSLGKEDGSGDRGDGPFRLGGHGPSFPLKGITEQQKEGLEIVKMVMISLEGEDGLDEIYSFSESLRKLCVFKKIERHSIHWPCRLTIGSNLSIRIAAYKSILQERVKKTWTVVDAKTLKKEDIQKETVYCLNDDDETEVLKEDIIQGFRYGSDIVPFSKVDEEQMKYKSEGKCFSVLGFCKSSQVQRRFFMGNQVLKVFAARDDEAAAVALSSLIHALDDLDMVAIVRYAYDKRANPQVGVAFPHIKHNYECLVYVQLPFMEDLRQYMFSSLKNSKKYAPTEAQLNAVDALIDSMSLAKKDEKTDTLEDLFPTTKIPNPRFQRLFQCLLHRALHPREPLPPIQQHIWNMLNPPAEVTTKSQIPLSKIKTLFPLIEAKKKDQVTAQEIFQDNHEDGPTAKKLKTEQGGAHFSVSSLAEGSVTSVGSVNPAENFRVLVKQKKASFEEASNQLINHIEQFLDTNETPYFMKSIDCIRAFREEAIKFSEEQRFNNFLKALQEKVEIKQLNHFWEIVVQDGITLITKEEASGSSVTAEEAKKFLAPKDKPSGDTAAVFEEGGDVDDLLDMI

How the values were obtained:
Ku70/80-DNA(F) = biological target: T1, Ku70/80-DNA(F) (Homo sapiens, UniProt P12956+P13010); assay: ITC, Ku-DNA(F) complex in cell titrated with PAXX or P-KBM peptides; assay type: binding; parameters: key to Kd: NI: no interaction; details: for Kd: ITC (VP-ITC), ITC cell: Ku-DNA(F), full-length Ku 5 μM, Ku:DNA 1:1.2, syringe peptide 50-100 μM, 20 mM tris (pH 8), 150 mM NaCl, 5 mM β-mercaptoethanol, 25°C, single set of independent sites fit; for interaction with Ku (ITC, words): same conditions as WT P-KBM
T1 construct: For ITC measurements, the full-length Ku heterodimer was used with the DNA G and F; 10xHis-tag followed by TEV protease site (N); made in house; host or cells: Sf21 insect cells (MultiBac)

[1] = test system: damaged chromatin fraction of U2OS cells expressing WT or mutated Ku70; assay: Western blot of chromatin fractions after calicheamicin; assay type: cell-based, human; details: 3 nM calicheamicin for 1 hour, Fig. 3E
Procedure: (§1) Stock solution of calicheamicin γ1 (Cali), gift from P. R. Hamann (Wyeth Research, Pearl River, NY, USA), was made at 40 μM in ethanol and stored at −20°C. For drug exposure, exponentially growing cells in 60-cm-diameter dishes were either mock-treated or treated with Cali in fresh medium for 1 hour at 37°C. Then, cells were washed with PBS and trypsinized. Pellets were fractionated as follows. Cells were first resuspended for 7 min on ice in 120 μl of extraction buffer 1 [50 mM Hepes (pH 7.5), 150 mM NaCl, and 1 mM EDTA] containing 0.1% Triton X-100 and supplemented with the Halt protease and phosphatase inhibitor cocktail (Thermo Fisher Scientific) with intermittent gentle vortexing. […] Protein content was measured with BCA reagent (Pierce), and equivalent protein amounts were denaturated in loading buffer at 1× final concentration [50 mM tris-HCl (pH 6.8), 10% glycerol, 1% SDS, 300 mM 2-mercaptoethanol, and 0.01% bromophenol blue] at 95°C for 5 min, separated on SDS–polyacrylamide gel electrophoresis gels (Bio-Rad; 4 to 15% Tris-Glycine eXtended) precast gels) before overnight transfer onto Immobilon-P polyvinylidene difluoride (Millipore) membranes. […]

[2] = test system: laser-induced DNA damage sites in U2OS cells; assay: Laser microirradiation, GFP-PAXX and mCherry-XLF coexpressed in U2OS cells with WT or mutated Ku70; assay type: cell-based, human; details: U2OS cells expressing Ku70 mutants; Fig. 5, B to E
Description: Fig. 5. […] Ku70 is in orange, Ku80 in green, and DNA in yellow. (B) Principle of the laser microirradiation experiment and (C) representative images before and after irradiation of nuclei from U2OS cells expressing WT or mutated Ku70, cotransfected with GFP-PAXX and mCherry-XLF. (D and E) Quantification of fluorescence accumulation at laser-induced DNA damage sites in cells expressing GFP-PAXX and mCherry-XLF. Results were plotted as mean values ± SEM. Ku70 mutants are colored accordingly. (F) Western blotting on whole cell extracts from HEK-293T cells as stated, treated or not with 150 pM calicheamicin (Cali) for 1 hour. (G) Histogram with mean values ± SEM of end joining efficiency in HEK-293T cells as indicated, quantified by fluorescence expression analyzed by flow cytometry 48 hours after cell cotransfection with Cas9-targeted reporter and control circular plasmids. Values were set at 100% for the WT condition and statistical analysis was performed using the unpaired Student’s t-test. The P values for PAXXKO vs WT and XLFKO vs WT were 0.0188 (*) and 0.0011 (**), respectively. The P values for XLFKO/PAXXKO vs WT and XLFKO/PAXXKO vs XLFKO were <0.0001 (****).
The generation of U2OS cells expressing a mAID-Ku70 in place of the endogenous protein was achieved as follows. […]

[3] = test system: DNA-PKcs S2056 phosphorylation in HEK-293T cells; assay: DNA-PKcs S2056 phosphorylation, complementation of PAXX/XLF double KO cells (DNA end synapsis); assay type: cell-based, human; details: PAXX/XLF double KO HEK-293T cells complemented; 200 pM calicheamicin for 1 hr; Western blot; fig. S19
Procedure: as §1

Kd (Ku70/80-DNA(F))	interaction with Ku (ITC, words) (Ku70/80-DNA(F))	Substance	other results
NI	no interaction with Ku	Ac-RRRCPGEALINPGFKSKKPAGGVDFDET-COOH [KBM(SA), P-KBM peptide with S184A mutation]	–
–	–	XLF: XRCC4-like factor, NHEJ core protein	recruitment to damaged chromatin fraction, Ku70 Patch 1 or Patch 2 mutated [1]: recruited at levels comparable to the control cells
–	–	mCherry-XLF: mCherry-tagged XLF expressed in U2OS cells	recruitment of coexpressed GFP-PAXX / mCherry-XLF to DNA damage sites with Ku70 mutations [2]: preserved
–	–	PAXX: full-length PAXX, paralog of XRCC4 and XLF, 6xHis-tag, expressed in E. coli; WT protein also expressed in cells	recovery of PAXX-dependent synapsis function (DNA-PKcs P-S2056) [3]: can be recovered
–	–	PAXX bearing a F201A-mutated P-KBM: PAXX protein with F201A mutation in the P-KBM, used for complementation	recovery of PAXX-dependent synapsis function (DNA-PKcs P-S2056) [3]: but not with PAXX bearing a F201A-mutated P-KBM
NI	no interaction with Ku	Ac-RRRCPGESLINPGFKSKKPAGGADADET-COOH [KBM(VFAA), P-KBM peptide with double mutation V199A + F201A]	–
NI	no interaction with Ku	Ac-RRRCPGESLIEPGFKSKKPAGGVDFDET-COOH [KBM(NE), P-KBM peptide with N187E mutation]	–
